Values quoted from earlier work as cited in US20110002843A1, “METHOD OF DETECTING MYOCARDIAL DYSFUNCTION IN PATIENTS HAVING A HISTORY OF ASTHMA OR BRONCHOSPASM” (priority 2005, published 2011).

Sequences of proteins named here, by UniProt entry; tags and fusion partners are left off.
UniProt P47745, whole entry: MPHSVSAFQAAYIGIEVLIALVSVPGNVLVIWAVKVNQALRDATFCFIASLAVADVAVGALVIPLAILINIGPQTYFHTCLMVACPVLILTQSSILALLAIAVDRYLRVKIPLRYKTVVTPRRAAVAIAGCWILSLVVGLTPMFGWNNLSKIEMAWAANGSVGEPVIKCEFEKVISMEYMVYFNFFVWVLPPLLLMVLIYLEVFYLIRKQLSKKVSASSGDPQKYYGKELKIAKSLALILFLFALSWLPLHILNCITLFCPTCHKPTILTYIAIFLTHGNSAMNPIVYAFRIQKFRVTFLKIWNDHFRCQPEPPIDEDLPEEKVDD

Target: A1 adenosine receptor (Cavia porcellus, UniProt P47745)
Set-up: a Langendorff guinea pig heart preparation; from tissue; host or cells: isolated perfused guinea pig heart (Langendorff)
Conditions: heart paced at 260 beats/min; data of U.S. Pat. No. 5,278,150; read-out: EC50—SQPR (A1); cited from earlier work

For COc1ccc(C=NNc2nc(N)c3ncn([C@@H]4O[C@H](CO)[C@@H](O)[C@H]4O)c3n2)cc1 [F, 2-[2-(4-Methoxybenzylidene)hydrazino]adenosine], the EC50 is given as 22.9 µM.
